Target: T1, myelin-associated glycoprotein (MAG) (Rattus norvegicus, UniProt P07722)
T1 sequence (P07722 20-626): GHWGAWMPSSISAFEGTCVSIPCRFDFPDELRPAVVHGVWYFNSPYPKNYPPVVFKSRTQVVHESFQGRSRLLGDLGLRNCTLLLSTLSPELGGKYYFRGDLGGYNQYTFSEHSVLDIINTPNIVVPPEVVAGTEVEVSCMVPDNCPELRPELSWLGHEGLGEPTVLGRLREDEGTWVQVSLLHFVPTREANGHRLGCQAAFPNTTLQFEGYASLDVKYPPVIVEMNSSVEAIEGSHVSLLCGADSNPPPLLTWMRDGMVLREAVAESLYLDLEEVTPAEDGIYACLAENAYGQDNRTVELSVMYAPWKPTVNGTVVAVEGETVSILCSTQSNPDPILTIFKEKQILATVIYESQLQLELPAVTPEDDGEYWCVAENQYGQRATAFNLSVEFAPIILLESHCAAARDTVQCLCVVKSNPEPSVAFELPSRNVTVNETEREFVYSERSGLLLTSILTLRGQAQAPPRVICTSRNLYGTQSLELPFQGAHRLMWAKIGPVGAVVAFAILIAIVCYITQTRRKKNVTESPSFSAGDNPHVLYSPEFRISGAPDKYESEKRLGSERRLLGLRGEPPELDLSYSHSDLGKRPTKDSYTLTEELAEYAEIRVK
Assay: Adherence of MAG-transfected COS cells to microwell surfaces on which gangliosides/glycolipids were adsorbed (LDH activity)
Details: structure-function comparison, FIGS. 1C and 2

NeuAc α2,3 Gal β1,3(NeuAc α2,6) GalNAc β1,4(NeuAc α2,8 NeuAc α2,3)Gal β1,4Glc β1,1'Ceramide [GQ1bα]
support of MAG-mediated cell adhesion: enhanced support of MAG-transfected COS cell adhesion
